Assay results taken from paper PMC6273235, “Phenolic Constituents of Medicinal Plants with Activity against Trypanosoma brucei” (Molecules, 2016).

How the values were obtained:
HEK293T cells = test: Cytotoxicity assay (resazurin, 3 days), HEK293T; assay type: cell-based, human; conditions: CC50 (HEK293T)/IC50 (T. brucei)
Method: (§1) HEK293T and HepG2 cells were cultured at 37 °C with 5% CO2 in Dulbecco’s modified eagle medium containing 10% FBS. Both cell lines were plated individually in 384 well plates (4000 cells per well) and the natural compounds (two fold 10 points serial dilution starting from 5 ppm) were added for 3 days of incubation.

HepG2 cells = test: Cytotoxicity assay (resazurin, 3 days), HepG2; assay type: cell-based, human; conditions: CC50 (HepG2)/IC50 (T. brucei)
Method: as §1

In the case of `COc1ccc([C@@H](O)[C@@H](C)Oc2ccc([C@H]3O[C@H](c4ccc(O[C@H](C)[C@H](O)c5ccc(OC)c(OC)c5)c(OC)c4)[C@H](C)[C@H]3C)cc2OC)cc1OC` [Compound 13, manassantin A], the “s.i (selectivity index) HEK239T” value (HEK293T cells) is reported as greater than 2.18 and the “s.i (selectivity index) HepG2” value (HepG2 cells) is reported as greater than 2.52.
